Laboratory results from ChEMBL document CHEMBL5725928, “Substituted 4,5,6,7-tetrahydropyrazolo[1,5-A]pyrazine derivatives as casein kinase 1 D/E inhibitors” (2017).

Sequences of proteins named here, by UniProt entry; tags and fusion partners are left off. A change or cut given only in a name is not applied to a line headed by its entry.
UniProt P49674: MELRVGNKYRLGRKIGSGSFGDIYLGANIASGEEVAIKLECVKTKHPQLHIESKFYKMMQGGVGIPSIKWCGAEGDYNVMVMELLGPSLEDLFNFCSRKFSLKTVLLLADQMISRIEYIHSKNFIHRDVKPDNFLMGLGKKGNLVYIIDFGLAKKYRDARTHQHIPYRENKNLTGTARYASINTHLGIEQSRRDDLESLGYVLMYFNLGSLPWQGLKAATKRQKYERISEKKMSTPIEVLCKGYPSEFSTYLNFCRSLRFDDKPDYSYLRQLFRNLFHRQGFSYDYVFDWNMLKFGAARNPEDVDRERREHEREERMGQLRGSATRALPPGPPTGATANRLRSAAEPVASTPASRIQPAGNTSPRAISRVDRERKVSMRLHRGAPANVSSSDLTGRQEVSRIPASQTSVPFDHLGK

Target: Casein kinase I isoform epsilon (Homo sapiens, UniProt P49674)
Assay: IC50 values were derived by non-linear regression analysis.

## CC(C)(C)[C@H]1CN(C(=O)Nc2ccc(C#N)cc2)Cc2c(C(N)=O)c(-c3ccc(F)c(Cl)c3)nn21
  IC50: < 10 nM
